# Antibody variant affinities, Ab-95 light chain, assay 2

The measurements come from Engelhart et al. 2022 (doi:10.1038/s41597-022-01779-4) through the FLAb antibody collection.

The target is the same throughout: PDVDLGDISGINAS, from the HR2 region of SARS-CoV-2 spike.

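AAYL52 was designed without a model: most single CDR substitutions and a random sample of double and triple ones. The scFvs were displayed on barcoded MATa yeast, the peptide on MATalpha yeast. The frequency of each diploid, read from paired DNA barcodes, reflects how well the two displayed proteins bind. Read counts were normalised to the haploid input and turned into Kd by a linear fit to BCL2-family pairs of known affinity, for each replicate. Mating was done three times.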

Each scFv is VH, three GGGGS repeats, VL, as in the parent Ab-95, and differs from it in the CDRs of the light chain only.
VH: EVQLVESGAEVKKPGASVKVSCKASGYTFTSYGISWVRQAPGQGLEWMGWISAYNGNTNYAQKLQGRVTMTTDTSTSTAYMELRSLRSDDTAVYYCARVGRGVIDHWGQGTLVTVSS
VL: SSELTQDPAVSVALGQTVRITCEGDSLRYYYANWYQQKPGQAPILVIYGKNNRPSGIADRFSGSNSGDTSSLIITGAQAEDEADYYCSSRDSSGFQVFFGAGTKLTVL

Variants are written as CDR1, CDR2 and CDR3 of the light chain (limits as in the source). Parent: EGDSLRYYYAN, GKNNRPS, SSRDSSGFQVF. The read-out is the apparent dissociation constant on a log10 scale (nM): the lower, the stronger. A pair that was not seen in that replicate is written "nd"; this usually means weak binding, but a binder can also be missed. As a blank, each scFv also met three strains without target: over library AAYL52, 28% of these pairings were detected, typically at 3.91 and seldom below 2.90. The control count says in how many pairings with the empty strains this scFv gave a signal, with their mean in brackets. Parent in this assay: reference entry 2.31, copy in this library 2.25.

CDR-L1,CDR-L2,CDR-L3,log10 Kd (nM) by replicate,empty controls
ELDSLRAYYAN,GKNNCPS,SSRDSSGFQVF,4.18 / 4.52 / nd,4 of 9 (3.84)
EGDSLRYYYAN,GKNNRPS,VSRDSSGWIVF,1.95 / 2.71 / 2.79,1 of 9 (4.51)
EGDSLRYYYAN,GKNNRPS,TSRDSSLFQRF,3.80 / 4.75 / 4.44,5 of 9 (4.23)
EGDSLRYYYAN,GKKNRQS,SSDDSSGFQVF,nd / nd / nd,1 of 9 (3.67)
PGDSLRVYYAN,GKNNRPS,YSRDSSGFQVF,4.48 / 4.13 / 4.66,3 of 9 (4.16)
EGDSLRYLYAN,GKNRRPS,SSRDSSGFQVF,3.68 / 2.94 / 3.17,6 of 9 (4.10)
EWDSLRYYYAN,GKNNRPS,ASRDSEGFQVF,nd / 3.44 / nd,3 of 9 (3.51)
EGDSLRYYYAN,GKRNRPS,SSRDRFGFQVF,nd / 4.16 / nd,1 of 9 (3.59)
EGDSLRYYYAN,GQNSRPS,SSRDSMGFQVF,4.44 / 3.45 / 4.25,2 of 9 (3.28)
LGDSRRYYYAN,GKNKRPS,SSRDSSGFQVF,4.75 / 5.62 / 4.94,3 of 9 (4.15)
EGDSLRYYYRN,GKNNRPS,PSRDSTGFQVF,4.10 / 3.67 / nd,2 of 9 (4.29)
EGDSLRLYYNN,GKNNRPS,SSRDSIGFQVF,nd / 4.82 / nd,4 of 9 (3.89)
EGDSCRYYYAI,GKFNRPS,SSRDSSGFQVF,3.65 / 5.21 / 3.00,2 of 9 (3.48)
FGDSLRYWYAN,GKNNRPS,SSRDSSGGQVF,2.76 / 2.34 / 2.91,2 of 9 (3.81)
EGDSHRYYYAL,GKHNRPS,SSRDSSGFQVF,5.63 / 3.74 / nd,3 of 9 (3.11)
EKDSLRYYYLN,GKNGRPS,SSRDSSGFQVF,nd / nd / nd,1 of 9 (4.31)
EGDSLRYYYAN,GKNNEPS,SSRSSSGQQVF,2.90 / 2.74 / 2.09,3 of 9 (4.85)
EGDSLRYYYAN,GKNNRPS,SSRDSSGDMVF,nd / 4.51 / nd,4 of 9 (4.10)
EGDKFRYYYGN,GKNNRPS,SSRDSSGFQVF,nd / nd / nd,0 of 9
EGSSLRYYYAN,GKENRPS,SSRQSSGFQVF,nd / nd / nd,1 of 9 (3.73)
EGDILRYYYAN,GKNNRPQ,SSRDISGFQVF,3.27 / 5.37 / 3.19,3 of 9 (3.76)
EGDSLRYYYAN,GKNNRVS,KSRDSTGFQVF,3.86 / nd / nd,2 of 9 (4.08)
EGDSLRYYYAN,GKNNRPS,SSRDSSGFHVF,2.32 / 2.13 / 1.78,4 of 9 (4.20)
EGDSLRYYYAN,GKNNRPS,QSKDSPGFQVF,3.19 / 2.19 / 2.29,3 of 9 (3.58)
EGDSLWYYYAN,GKNNMPS,SSRDSSGFQVY,4.14 / nd / nd,0 of 9
EGDFLRYTYAN,GKNNRPS,SSRDSSGFQVF,1.57 / 1.53 / 1.32,3 of 9 (3.75)
EGDGLRYYYAN,GKGNRPA,SSRDSSGFQVF,2.24 / 2.18 / 1.68,3 of 9 (4.46)
EGDSLRYYYAN,GKNIRPS,SSRDSQGFQVF,2.57 / 2.54 / 1.85,2 of 9 (4.06)
EGDSLRHYYAN,LKNNRPS,ASRDSSGFQVF,nd / nd / nd,1 of 9 (2.70)
EGDSLKYYYAN,GKNNRPS,SSPDSFGFQVF,nd / nd / nd,0 of 9
EGDSLRYMYAY,GKNNRPS,SSRDSSGFQVF,4.16 / 3.12 / 4.30,2 of 9 (3.79)
EKDSLRYYYAN,GKNNFPS,SSWDSSGFQVF,4.10 / 4.19 / 4.50,4 of 9 (4.80)
EGDSRRYYYAN,GKNNRPS,SSRDDSGFQVF,2.25 / 1.84 / 1.59,2 of 9 (3.48)